The values that follow come from PMC5520654 (Journal of immunology (Baltimore, Md. : 1950), 2017).

The assay concerns mice with CFA-induced inflammation. Particulars: mouse, in vivo.

Take “[^18F]fluoro-2-deoxy-2-D-glucose [FDG, reference compound]”: the “Inflamed paw (SUVmean)” value is on record as 1.5 ± 0.1 and the Inflamed paw/muscle ratio is 21.4 ± 3.6.
